Test results as given in patent publication US7326727B2, “Furanthiazole derivatives as heparanase inhibitors” (Oxford Glycosciences (UK) Ltd., priority 2002, dated 2008).

The chains behind the UniProt entries cited, without tags or fusion partners. Residues count along the entry.
UniProt Q9Y251, 36-109 limits assumed: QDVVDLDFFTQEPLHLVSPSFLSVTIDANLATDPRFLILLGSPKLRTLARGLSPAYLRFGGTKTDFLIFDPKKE
UniProt Q9Y251, 158-543 limits assumed: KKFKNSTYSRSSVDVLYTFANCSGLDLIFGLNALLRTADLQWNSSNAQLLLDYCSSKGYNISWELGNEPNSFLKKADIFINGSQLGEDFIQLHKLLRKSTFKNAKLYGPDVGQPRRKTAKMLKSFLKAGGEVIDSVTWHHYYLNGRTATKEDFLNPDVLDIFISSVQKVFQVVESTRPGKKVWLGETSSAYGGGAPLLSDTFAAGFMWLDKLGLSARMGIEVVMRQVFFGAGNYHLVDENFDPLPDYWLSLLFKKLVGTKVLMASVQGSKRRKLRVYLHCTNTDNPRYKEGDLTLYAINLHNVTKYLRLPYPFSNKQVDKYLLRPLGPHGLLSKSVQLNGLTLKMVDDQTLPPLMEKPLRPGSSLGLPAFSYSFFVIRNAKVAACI

Target: human heparanase (Homo sapiens, UniProt Q9Y251)
Test: Heparanase assay (bFGF binding to heparan sulphate, 96-well plate)
Details: read-out: Inhibition of Heparanase (IC50), 2 h at 37° C., pH 5.5

Compound: O=C(O)Cc1nc(-c2ccc(-c3ccc(NC(=O)C4=COc5ccc(Cl)cc5C4)cc3Cl)o2)cs1
- IC50: 1000 nM
